The target of this assay is UBR4_(4828–5183) (human) (UniProt Q5T4S7). Briefly: ITC; UBR4 construct in the cell (74 μM), UBE2A in the syringe at tenfold higher concentration; 25 °C; 0.4 µl then 13 injections of 3 µl; UBE2A into buffer subtracted; single site binding model. (In ITC the heat of successive injections is recorded.)

Amino acid sequences for entries named in this document (tags omitted). Residues count along the entry.
UniProt Q5T4S7, 4828-5183: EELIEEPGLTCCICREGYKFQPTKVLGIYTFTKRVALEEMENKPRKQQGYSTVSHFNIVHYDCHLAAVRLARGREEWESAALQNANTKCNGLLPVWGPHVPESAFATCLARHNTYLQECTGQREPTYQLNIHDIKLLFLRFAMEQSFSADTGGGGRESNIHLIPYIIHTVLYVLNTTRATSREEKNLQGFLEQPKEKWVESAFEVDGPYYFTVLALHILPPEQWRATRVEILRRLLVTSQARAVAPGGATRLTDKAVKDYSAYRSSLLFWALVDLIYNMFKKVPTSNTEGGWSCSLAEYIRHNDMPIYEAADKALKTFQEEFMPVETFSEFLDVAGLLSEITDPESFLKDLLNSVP
UniProt P49459, whole entry: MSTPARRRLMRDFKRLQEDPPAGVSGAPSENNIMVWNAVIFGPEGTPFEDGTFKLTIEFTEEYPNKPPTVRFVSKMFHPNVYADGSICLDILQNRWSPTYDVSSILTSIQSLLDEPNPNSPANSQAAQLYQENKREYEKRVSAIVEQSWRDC

On to “UBE2A (from UniProt P49459 1-152) (enzyme)”, for which the dH was -3.89 kcal/mol.
